Bioassay records as filed in PubChem BioAssay.
gsp antagonist – gsp mutant antagonism; gsp-mutant cells, cAMP HTRF, 30 min; 340,000 tested, 0.4% active; AID 624288; Potency, µM (doses to about 76.9 µM), inactives show at the top dose activity change, negative = inhibition, most hits filed as inhibitors; calls by dose curve; cell line not stated here;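 also: intracellular cAMP measured with PDE inhibitor Ro 20-1724 present during compound exposure; % is scaled to controls: 0 for no effect and ±100 for the full control effect; nearly all actives have a fitted effect of over 65% in size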
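Measurement of cellular cAMP by homogeneous time-resolved fluorescence following a 30 min compound exposure at 37C. The PDE inhibitor […] was present throughout; the assay buffer was DPBS with 0.05% BSA and 0.005% Tween 20.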
S-ASM inh – blocks human secretory acid sphingomyelinase. placental ASM, HMU-PC fluorogenic substrate, 60 min. Potency, µM (highest dose often 57.5 µM), for the others: at the highest dose activity change, negative = inhibition, most hits filed as inhibitors. AID 504937. 340,000 tested, 0.006% active. P17405; active = well fitted inhibition curve with a large enough effect; inconclusive = small, poorly fitted or top-dose-only effect; inactive = no such curve, though single readings can be large or run the other way
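HMU-PC0 cleavage (9 uM final) by human placental ASM, 60 min at 37 °C following 10 min compound exposure at RT; stopped at pH 10, fluorescence Ex 386/Em 447 nm.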
Rango complex inh – Rango-importin beta binding inhibition | Potency, µM (series often up to 92.2 µM), for inactives: at the highest dose inhibition of complex formation | 340,000 tested, 0.031% active | Rango CFP/YFP FRET sensor + importin beta, 45 min | Q14974;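 also: 0% = DMSO wells and 100% = buffer wells lacking importin beta; nearly all actives have a fitted effect of over 15% in size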
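FRET biosensor (snurportin 1 IBB flanked by EYFP and cerulean), 50 nM, with compound 5 min, then 0.125 microM importin beta in PBS, 1 mM DTT, 0.02% Tween-20, 0.1% BSA. CFP/YFP ratio read after 45 min at room temperature; pre-read flags interference.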
gsp agonist – activates gsp, the McCune-Albright syndrome mutation. gsp mutant cells, cAMP HTRF, 30 min. Potency, µM (series often up to 76.9 µM), inactives show at the top dose activation (cAMP increase), actives largely listed as activators. 340,000 tested, 0.13% active. AID 624287; active = well fitted activation curve with a large enough effect; inconclusive = small, poorly fitted or top-dose-only effect, or another doubt; inactive = no such curve, though single readings can be large or run the other way; cell line not stated here;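 also: phosphodiesterase inhibitor Ro 20-1724 added with compounds to block cAMP breakdown; nearly all actives have a fitted effect of over 60% in size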
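Cells in DMEM/10% FBS with G418 were pretreated with compounds in DMSO plus […] (300 uM stock) for 30 min at 37C. cAMP was measured by HTRF (cAMP-d2 plus anti-cAMP antibody-K) after 30 min at room temperature.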
Rango release inh – inhibitors of RanGTP-induced Rango-importin beta complex dissociation; O95149+P62826; Biochemical FRET Rango-importin beta, RanGTP-induced dissociation; Potency, µM (doses to about 46.1 µM), for inactives: at the highest dose activity change, negative = inhibition; 340,000 tested, 0.071% active; also: % of control where 0% means no effect; nearly all actives have a fitted effect of over 45% in size
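Rango/importin beta premix (0.1/0.25 uM final), PBS + 1 mM DTT + 0.02% Tween-20 + 0.1% BSA; cpd 5 min RT; FRET pre-read; + RanGTP-RCC1 (0.6 uM Ran, 2 mM GTP, 0.2 uM RCC1); 45 min RT; FRET post-read, ex 430, em 486/530 nm.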
* = called active by the depositor; [ ] = dose if it differs, or a comment. The list is not random: actives were taken first. Their share in the collection is about 0.67%. Unless noted, calls follow the shape of the full dose curve. Potency is read from the fitted curve at half-maximal effect.

O=[N+]([O-])c1ccc(-c2nc3ccc([N+](=O)[O-])cc3[nH]2)cc1 was read as gsp antagonist inconclusive, S-ASM inh -8%, Rango complex inh 0%, gsp agonist inconclusive and Rango release inh -1%.
Screening COc1cccc2c(=O)cc(C)n(CC(=O)Nc3ccc(C)c(C)c3)c12 returned gsp antagonist -23%, S-ASM inh -5%, Rango complex inh -1%, gsp agonist 37% and Rango release inh 6%.
Screening COc1ccccc1NC(=O)Cn1c(C)cc(=O)c2cccc(OC)c21 returned gsp antagonist 28µM*, S-ASM inh -3%, Rango complex inh 4%, gsp agonist 1%[15.4 µM] and Rango release inh 0%.
For CCC(=O)N(c1ccc(C(=O)O)cc1)c1nc(-c2ccc(OC)cc2)c(C)s1 the results were gsp antagonist 25µM*, S-ASM inh 9%, Rango complex inh -2%, gsp agonist inconclusive and Rango release inh 23%.
C=CC[C@]12C=C(OC)C(=O)C=C1O[C@@H](c1ccc3c(c1)OCO3)[C@H]2C was read as gsp antagonist -11%, S-ASM inh -2%, Rango complex inh 4% and Rango release inh 15%.
Screening C=C1c2ccccc2S(=O)(=O)N(Cc2ccccc2)C1COCc1ccccc1 (stereo not drawn) returned gsp antagonist 1%, S-ASM inh 0%, Rango complex inh 0% and Rango release inh 3%.
`COc1ccc(-c2nn(C)c3sc(C(=O)NCc4ccco4)cc23)cc1OC` gave gsp antagonist 29%, S-ASM inh 7%, Rango complex inh 0%, gsp agonist 13µM* and Rango release inh 0%.
For COc1ccc(NC(=O)c2cc3c(-c4ccc(OC)c(OC)c4)nn(C)c3s2)cc1OC the results were gsp antagonist -24%, S-ASM inh -30%, Rango complex inh 0%, gsp agonist -20% and Rango release inh 5%.
COc1ccc(-c2ccnc3c(Br)c(C)nn23)cc1 was read as gsp antagonist -6%, S-ASM inh 14%, Rango complex inh inconclusive, gsp agonist 5% and Rango release inh -19%.
For N#C/C(=N\Nc1cccc(Cl)c1)C(=O)c1ccccc1 the results were gsp antagonist 16µM*, S-ASM inh -10%, Rango complex inh 11%, gsp agonist 0% and Rango release inh 2%.
`N#C/C(=N\Nc1ccccc1Cl)C(=O)c1ccccc1` gave gsp antagonist inconclusive, S-ASM inh -5%, Rango complex inh 0%, gsp agonist -25% and Rango release inh 0%.
`CCN(CC(=O)Nc1ccc(NC(C)=O)cc1)C(=O)c1cccc(S(=O)(=O)N2c3ccccc3CC2C)c1` (stereo not drawn) gave gsp antagonist 8%, S-ASM inh 0%, Rango complex inh -5%, gsp agonist -13%[15.4 µM] and Rango release inh 7%.
`COc1ccc(C)cc1NC(=O)c1ccccc1NS(=O)(=O)c1ccc(Cl)s1` gave gsp antagonist 35µM*, S-ASM inh -3%, Rango complex inh 0%, gsp agonist 8% and Rango release inh -1%.
For COc1ccccc1NC(=O)c1ccccc1NS(=O)(=O)c1cccs1 the results were gsp antagonist -10%, S-ASM inh -4%, Rango complex inh 1%, gsp agonist 15% and Rango release inh 2%.
`Cc1ccc(NC(=O)c2ccc(F)c(S(=O)(=O)N3CCOCC3)c2)cc1F` gave gsp antagonist 35µM*, S-ASM inh -7%, Rango complex inh 2%, gsp agonist -46% and Rango release inh 7%.
Screening CC(C)CCNC(=O)c1ccc2c(c1)ncn2C1CCCC1 returned gsp antagonist 7.9µM*, S-ASM inh 7%, Rango complex inh 5%, gsp agonist -2%[15.4 µM] and Rango release inh 1%.
Screening c1ccc(-c2nnc(N3CCN(c4ccccn4)CC3)c3ccccc23)cc1 returned gsp antagonist -13%, S-ASM inh 1%, Rango complex inh 0%, gsp agonist -2% and Rango release inh 0%.
`Cc1ccc(-c2nnc(N3CCN(S(C)(=O)=O)CC3)c3ccccc23)cc1` gave gsp antagonist -26%, S-ASM inh -1%, Rango complex inh 0%, gsp agonist -3% and Rango release inh 1%.
`Cc1ccc(-c2nnc(N3CCN(C(=O)c4cccs4)CC3)c3ccccc23)cc1` gave gsp antagonist 45µM*, S-ASM inh -3%, Rango complex inh 1%, gsp agonist -12% and Rango release inh -7%.
Screening Cc1ccc(-c2nnc(N3CCN(c4ccccn4)CC3)c3ccccc23)cc1 returned gsp antagonist 40µM*, S-ASM inh -4%, Rango complex inh 0%, gsp agonist -10%[15.4 µM] and Rango release inh -13%.
Cc1ccc(-c2nnc(N3CCCCC3)c3ccccc23)cc1 was read as gsp antagonist 35µM*, S-ASM inh 0%, Rango complex inh -1%, gsp agonist -33% and Rango release inh -7%.
O=C(CN(c1cccc([N+](=O)[O-])c1)S(=O)(=O)c1ccccc1)N1CCCCC1 was read as S-ASM inh -3%, Rango complex inh -2%, gsp agonist -3%[15.4 µM] and Rango release inh 2%.
COc1ccc(C(=O)N/C(=C\c2cn(C)c3ccccc23)C(=O)NCCCn2ccnc2)cc1 was read as gsp antagonist -16%, S-ASM inh -2%, Rango complex inh -2%, gsp agonist inconclusive and Rango release inh 10%.
Screening O=[N+]([O-])c1ccc(-c2cn3c(n2)CCC3)cc1 returned gsp antagonist 4%, S-ASM inh -11%, Rango complex inh 0%, gsp agonist 14µM* and Rango release inh 11%.
For CC1CCCCN1C(=O)/C(=C\c1ccccc1)c1ccccc1 (stereo not drawn) the results were gsp antagonist -5%, S-ASM inh -2%, Rango complex inh 1%, gsp agonist 8% and Rango release inh -5%.
Screening CC(C)NC(=O)C1CCN(C(=O)c2cc3sccc3n2Cc2ccc(F)cc2)CC1 returned gsp antagonist 32µM*, S-ASM inh 1%, Rango complex inh -1%, gsp agonist 2% and Rango release inh 12%.
Screening O=C(Nc1nncs1)c1c(F)c(F)c(F)c(F)c1F returned gsp antagonist 40µM*, S-ASM inh 4%, Rango complex inh 4%, gsp agonist -1% and Rango release inh 10%.
For Cc1nc(SCC(=O)Nc2nccs2)c(C#N)c(C)c1C the results were gsp antagonist 6%, S-ASM inh 29%, Rango complex inh inconclusive, gsp agonist inconclusive and Rango release inh 26µM*.
Screening Cc1c(N2C(=O)/C(=C\c3ccc(N(C)C)cc3)N(C)C2=S)c(=O)n(-c2ccccc2)n1C returned gsp antagonist -31%, S-ASM inh -27%, Rango complex inh 52µM*, gsp agonist -65% and Rango release inh 1%.
